In paper PMC6587507, “Comparison of the metabolism of 10 chemicals in human and pig skin explants” (Journal of Applied Toxicology, 2018):

How the values were obtained:
[1] = system: human abdominal skin explants; conditions: cinnamyl alcohol applied to human skin
Procedure: (§1) Human abdominal skin was obtained (with consent for research from a commercial supplier [L’Union Clinic, Rangueil hospital and Icelltis, Toulouse, France] with certified ethical procedures) from six male and 34 female healthy donors, 41 ± 11 years of age, undergoing cosmetic surgery. Abdominal skin was kept at 4°C during transports and placed in culture within 3 hours of surgery. Pig ear skin was a waste product of the meat industry (without hot steam treatment) from domestic pigs (female Pietrain breed, 6 months old, 80‐100 kg) obtained from a local slaughterhouse (Montauban, France). Ears were taken from the animals within 5 minutes of slaughter and were kept at 4°C during transport to the laboratory, which lasted a maximum of 2 hours. Pig skin samples were dried and then gently shaved.
(§2) The experiment and the preparation of the culture medium were performed under sterile conditions. […]
(§3) The dosing volume was 10 μL/cm^2. […] The metabolite profiles for the 48‐hour timepoint are not reported here since humans skin metabolism was measured at 24 hours only; however, for completeness, the distribution of radioactivity at the end of both pig (48 hours) and human (24 hours) skin incubations is reported. […]
(§4) After centrifugation, a 100 μL aliquot of the extract was counted by liquid scintillation. The pellet was dissolved in 3 mL Soluable (60°C, 24 hours) and then counted by liquid scintillation. […]

pig ear skin explants = conditions: cinnamyl alcohol applied to pig skin
Procedure: as §1, §2, §3, §4

**Q.** Which “Amount of metabolite in the medium after 24 h” value [1] does the source give for “cinnamic acid glucuronide [VII (cinnamic acid glucuronide)]” here?
**A.** 0.5 ± 0.1 % Applied dose

**Q.** What about the “Amount of metabolite in the medium after 24 h” value (pig ear skin explants) of the same substance?
**A.** 1.0 ± 0.3 % Applied dose
